Columns and labels:
[1] = test system: ADP-induced platelet aggregation; test: Platelet aggregation in human platelet-rich plasma; type: cell-based
hP2Y12R = test: Increase in [Ca2+]i in U-205 cells stably transfected with hP2Y12R; type: cell-based, human

[BH3-][P@@](=O)(OC[C@H]1O[C@@H](n2cnc3c(N)nc(SC)nc32)[C@H](O)[C@@H]1O)OP(=O)([O-])[O-].[Na+].[Na+].[Na+] [analogue 3A, 2-Methylthioadenosine 5′-O-(′-Borano)diphosphate, A Isomer]
fold reduction of ADP-induced platelet aggregation ([1]; 10 μM, ADP 10 μM, human plasma): 8 fold
induction of platelet aggregation ([1]; human PRP, analogue alone, data not shown): does not cause platelet aggregation
activity at the P2Y12R relative to ADP (hP2Y12R): partial agonist activity

Source: publication PMC4354947 (Journal of medicinal chemistry, 2012)
